Experimental data taken from US9802944B2, “Bicyclic compounds as autotaxin (ATX) and lysophosphatidic acid (LPA) production inhibitors” (Hoffmann-La Roche Inc., priority 2014, dated 2017).

Molecular target: ATX (human His-tagged) (Homo sapiens (Human), UniProt Q13822)
Experiment: Human ATX enzyme inhibition assay (fluorescence quenching, MR121 substrate)
Assay type: biochemical
Conditions: 30 nM ATX, 1 μM MR121 substrate, 30° C., pH 8.0
Description: Production of Human Full Length ATX, with and without his Tag
Autotaxin (ATX-ENPP2) Cloning:
cDNA was prepared from commercial human hematopoietic cells total RNA and used as template in overlapping PCR to generate a full length human ENPP2 ORF with or without a 3′-6×His tag. These full length inserts were cloned into the pcDNA3.1V5-His TOPO (Invitrogen) vector. The DNA sequences of several single clones were verified. The DNA from a correct full length clone was used to transfect Hek293 cells for verification of protein expression. […] ATX Fermentation: Recombinant protein was produced by large-scale transient transfection in 20 L controlled stirred tank bioreactors (Sartorius). During cell growth and transfection, temperature, stirrer speed, pH and dissolved oxygen concentration were maintained at 37° C., 120 rpm, 7.1 and 30% DO, respectively. […] Expression was analyzed by Western Blot, enzymatic assay and/or analytical IMAC chromatography. After cooling the cell suspension to 4° C. in a flow-through heat exchanger, cell separation and sterile filtration of supernatant was performed by filtration through Zeta Plus 60M02 E16 (Cuno) and Sartopore 2 XLG (Sartorius) filter units. The supernatant was stored at 4° C. prior to purification. ATX Purification: 20 liter of culture supernatant were conditioned for ultrafiltration by adding Brij 35 to a final concentration of 0.02% and by adjusting the pH to 7.0 using 1 M HCl. Then the supernatant was first microfiltered through a 0.2 μm Ultran-Pilot Open Channel PES filter (Whatman) and afterwards concentrated to 1 liter through an Ultran-Pilot Screen Channel PES filter with 30 kDa MWCO (Whatman). Prior to IMAC chromatography, NiSO4 was added to a final concentration of 1 mM. The cleared supernatant was then applied to a HisTrap column (GE Healthcare) previously equilibrated in 50 mM Na2HPO4 pH 7.0, 0.5 M NaCl, 10% glycerol, 0.3% CHAPS, 0.02% NaN3. The column was washed stepwise with the same buffer containing 20 mM, 40 mM and 50 mM imidazole, respectively. The protein was subsequently eluted using a linear gradient to 0.5 M imidazole in 15 column volumes. ATX containing fractions were pooled and concentrated using an Amicon cell equipped with a 30 kDa PES filter membrane. The protein was further purified by size exclusion chromatography on Superdex S-200 prep grade (XK 26/100) (GE Healthcare) in 20 mM BICINE pH 8.5, 0.15 M NaCl, 10% glycerol, 0.3% CHAPS, 0.02% NaN3. […] The protein was stored at −80° C. […] 10 μL of MR121 substrate solution was added (1 μM final concentration), mixed 30 times and then incubated for 15 minutes at 30° C.

| IC50 | Compound |
| --- | --- |
| 19 nM | NS(=O)(=O)c1ccc(C(=O)N2C[C@@H]3CN(C(=O)c4cc(OCC5CCOCC5)nc(C5CC5)c4)C[C@@H]3C2)cc1 [Example 2.27, 4-((3aR,6aS)-5-(2-cyclopropyl-6-((tetrahydro-2H-pyran-4-yl)methoxy)isonicotinoyl)octahydropyrrolo[3,4-c]pyrrole-2-carbonyl)benzenesulfonamide] |
| 6 nM | O=C(c1cc(OCC2CCOCC2)nc(C2CC2)c1)N1CC[C@@H]2CN(C(=O)[C@@H]3CCc4[nH]nnc4C3)C[C@@H]2CC1 [Example 2.21, ((3aR,8aS)-6-(2-cyclopropyl-6-((tetrahydro-2H-pyran-4-yl)methoxy)isonicotinoyl)octahydropyrrolo[3,4-d]azepin-2(1H)-yl)((R)-4,5,6,7-tetrahydro-1H-benzo[d][1,2,3]triazol-5-yl)methanone] |

Further lines, the compound ahead of its results:

| Compound | IC50 |
| --- | --- |
| O=C(c1cc(OCC2CCOCC2)nc(C2CC2)c1)N1CC[C@@H]2CN(C(=O)c3ccc4[nH]nnc4c3)C[C@@H]2CC1 [Example 1.07, ((3aR,8aS)-2-(1H-benzo[d][1,2,3]triazole-5-carbonyl)octahydropyrrolo[3,4-d]azepin-6(7H)-yl)(2-cyclopropyl-6-((tetrahydro-2H-pyran-4-yl)methoxy)pyridin-4-yl)methanone] | 7 nM |
| O=C(c1cc(OCC2CCOCC2)nc(C2CC2)c1)N1CC[C@@H]2CN(C(=O)N3CCc4[nH]nnc4C3)C[C@@H]2CC1 [Example 5.02, ((3aR,8aS)-6-(2-cyclopropyl-6-((tetrahydro-2H-pyran-4-yl)methoxy)isonicotinoyl)octahydropyrrolo[3,4-d]azepin-2(1H)-yl)(6,7-dihydro-1H-[1,2,3]triazolo[4,5-c]pyridin-5(4H)-yl)methanone] | 7 nM |
| NS(=O)(=O)c1ccc(C(=O)N2C[C@H]3CN(C(=O)c4cnc(OC5CCOCC5)c(C5CC5)c4)C[C@@H]3C2)cn1 [Example 1, 5-((3aS,6aS)-5-(5-Cyclopropyl-6-(tetrahydro-2H-pyran-4-yloxy)nicotinoyl)octahydropyrrolo[3,4-c]pyrrole-2-carbonyl)pyridine-2-sulfonamide] | 29 nM |
| O=C(c1cnc(OCC2CCOCC2)c(C2CC2)c1)N1C[C@@H]2CN(C(=O)[C@@H]3CCc4[nH]nnc4C3)C[C@H]2C1 [Example 1.12, ((3aS,6aS)-5-(5-cyclopropyl-6-((tetrahydro-2H-pyran-4-yl)methoxy)nicotinoyl)hexahydropyrrolo[3,4-c]pyrrol-2(1H)-yl)((R)-4,5,6,7-tetrahydro-1H-benzo[d][1,2,3]triazol-5-yl)methanone] | 9 nM |
| Cn1c(=O)[nH]c2ccc(C(=O)N3C[C@H]4CCN(C(=O)c5cc(OCC6CCOCC6)nc(C6CC6)c5)CC[C@H]4C3)cc21 [Example 1.2, 6-((3aR,8aS)-6-(2-cyclopropyl-6-((tetrahydro-2H-pyran-4-yl)methoxy)isonicotinoyl)decahydropyrrolo[3,4-d]azepine-2-carbonyl)-1-methyl-1H-benzo[d]imidazol-2(3H)-one] | 14 nM |
| O=C(c1cc(OCC2CCOCC2)nc(C2CC2)c1)N1CC[C@@H]2CN(C(=O)[C@H]3CCc4[nH]nnc4C3)C[C@@H]2CC1 [Example 6, ((3aR,8aS)-6-(2-Cyclopropyl-6-((tetrahydro-2H-pyran-4-yl)methoxy)isonicotinoyl)octahydropyrrolo[3,4-d]azepin-2(1H)-yl)((S)-4,5,6,7-tetrahydro-1H-benzo[d][1,2,3]triazol-5-yl)methanone] | 5 nM |
| O=C(NCc1c[nH]nn1)N1C[C@H]2CCN(C(=O)c3cc(OCC4CCOCC4)nc(C4CC4)c3)CC[C@H]2C1 [Example 5.04, (3aR,8aS)-N-((1H-1,2,3-triazol-4-yl)methyl)-6-(2-cyclopropyl-6-((tetrahydro-2H-pyran-4-yl)methoxy)isonicotinoyl)octahydropyrrolo[3,4-d]azepine-2(1H)-carboxamide] | 7 nM |
| O=C(c1cnc(OCC2CCOCC2)c(C2CC2)c1)N1C[C@@H]2CN(C(=O)c3ccc4[nH]nnc4c3)C[C@H]2C1 [Example 1.11, ((3aS,6aS)-5-(1H-benzo[d][1,2,3]triazole-5-carbonyl)hexahydropyrrolo[3,4-c]pyrrol-2(1H)-yl)(5-cyclopropyl-6-((tetrahydro-2H-pyran-4-yl)methoxy)pyridin-3-yl)methanone] | 15 nM |
| O=C(c1cc(OCC2CCOCC2)cc(C2CC2)c1)N1CC[C@@H]2CN(C(=O)c3ccc4[nH]nnc4c3)C[C@@H]2CC1 [Example 1.14, ((3aR,8aS)-2-(1H-benzo[d][1,2,3]triazole-5-carbonyl)octahydropyrrolo[3,4-d]azepin-6(2H)-yl)(3-cyclopropyl-5-((tetrahydro-2H-pyran-4-yl)methoxy)phenyl)methanone] | 9 nM |
| O=C(CCc1c[nH]c(=O)o1)N1C[C@H]2CCN(C(=O)c3cc(OCC4CCOCC4)nc(C4CC4)c3)CC[C@H]2C1 [Example 1.21, 5-(3-((3aR,8aS)-6-(2-cyclopropyl-6-((tetrahydro-2H-pyran-4-yl)methoxy)isonicotinoyl)octahydropyrrolo[3,4-d]azepin-2(1H)-yl)-3-oxopropyl)oxazol-2(3H)-one] | 5 nM |
| O=C(CCc1c[nH]nn1)N1C[C@H]2CCN(C(=O)c3cc(OCC4CCOCC4)cc(C4CC4)c3)CC[C@H]2C1 [Example 1.15, 1-((3aR,8aS)-6-(3-cyclopropyl-5-((tetrahydro-2H-pyran-4-yl)methoxy)benzoyl)octahydropyrrolo[3,4-d]azepin-2(1H)-yl)-3-(1H-1,2,3-triazol-4-yl)propan-1-one] | 32 nM |
| O=C(CCc1cnn[nH]1)N1C[C@H]2CN(C(=O)c3cc(OCC4CCOCC4)nc(C4CC4)c3)C[C@@H]2C1 [Example 1.13, 1-((3aS,6aS)-5-(2-cyclopropyl-6-((tetrahydro-2H-pyran-4-yl)methoxy)isonicotinoyl)hexahydropyrro[3,4-c]pyrrol-2(1H)-yl)-3-(1H-1,2,3-triazol-5-yl)propan-1-one] | 3 nM |
| O=C(c1cc(OCC2CCOCC2)nc(C2CC2)c1)N1CC[C@@H]2CN(C(=O)c3ccc4[nH]c(=O)[nH]c4c3)C[C@@H]2CC1 [Example 1.19, 5-((3aR,8aS)-6-(2-cyclopropyl-6-((tetrahydro-2H-pyran-4-yl)methoxy)isonicotinoyl)decahydropyrrolo[3,4-d]azepine-2-carbonyl)-1H-benzo[d]imidazol-2(3H)-one] | 7 nM |
